Experimental findings from patent US7018839B2 (priority 1996, dated 2006) are described below.

In one assay the test system is anti-peptide antibody. Put plainly: Competition assay for binding of antibody to immobilised AChE-peptide. Also on record: species or system Rabbits. The following applies: competitor preincubated with antibody in solution; APP and BuChE peptide at even excessive doses. Here is the method:
In order to be sure that the antibody recognition of peptides occurs without the possible distortion due to the binding of the peptide to a charged plastic surface, an assay was used in which the critical interaction is studied in solution. […] An aliquot of the antibody was preincubated with potential competitors for binding to the AChE-peptide before presenting the resulting mixture to the peptide bound to the well.

Another assay has as its system substantia nigra. The assay is described as follows: Behavioural studies: infusion into one substantia nigra, amphetamine challenge, circling. It is filed as in vivo, rats. How it is done: In these experiments, rats were chronically implanted with a cannula in one substantia nigra and left to recover. After a period of about 3 days, they were infused with either a saline control solution, or a solution containing the 14-mer AChE peptide of the invention at a dose of 1 μl of 10^−5M. After a single infusion, they were challenged daily with a systemic application of amphetamine for the subsequent 10 days.

Assay [1] deals with neurons in the substantia nigra.

Consider DAEFRHDSGYEVHHQK [APP-peptide], for which, in the assay on anti-peptide antibody, the “competition for the binding of antibody to immobilised AChE-peptide” value is reported as “could not compete”. In the assay on substantia nigra (doubling the concentration), the “activity of the nigrostriatal pathway” value was “reverses this effect”. In the assay on substantia nigra (low concentration), the “activity of the nigrostriatal pathway” value was “increases activity of the nigrostriatal pathway”. In addition, in assay [1], the “calcium channel opening activity” value was “does not itself exert calcium channel opening activity”, the “effect of the fragment alone on calcium potentials” value is “ineffective” and the “effect on the activity of the AChE fragment” value is listed as “enhance the activity of the AChE fragment”.
